The entries are a selection whose mix differs from that of the whole data set. Activity calls are given as the source filed them. No stated cut-off is given here; in the data, active means inhibition above about 30%; inactive means the rest.
What follows are compounds tested against Protein phosphatase methylesterase 1 (Homo sapiens) (UniProt Q9Y570) (assay: inhibitors of human PME-1 in Maybridge library (AID 2291)). Conditions: recombinant PME-1, FP-Rh probe fluorescence polarization; at 9 µM; active compounds read high.

The chains behind the UniProt entries cited, without tags or fusion partners.
UniProt Q9Y570, whole entry: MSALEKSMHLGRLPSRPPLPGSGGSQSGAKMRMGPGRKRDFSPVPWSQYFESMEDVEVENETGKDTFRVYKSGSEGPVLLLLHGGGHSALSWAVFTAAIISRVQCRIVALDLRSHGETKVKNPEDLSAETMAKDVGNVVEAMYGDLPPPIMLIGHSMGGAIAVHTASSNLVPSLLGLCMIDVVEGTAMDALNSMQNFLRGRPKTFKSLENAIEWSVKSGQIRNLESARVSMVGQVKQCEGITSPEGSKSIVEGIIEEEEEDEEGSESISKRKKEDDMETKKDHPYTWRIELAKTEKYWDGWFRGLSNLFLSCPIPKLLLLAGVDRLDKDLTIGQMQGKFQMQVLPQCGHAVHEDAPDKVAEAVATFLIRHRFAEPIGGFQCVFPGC

Row | SMILES | inhibition
1 | Cc1ccccc1NC1CC(C)(C)NC(C)(C)C1 | inactive: 3.98%
